{"source": "PubChem BioAssay (NCI)", "assay_in_all_cases": "DTP human tumour cell line panel, 48 h", "key": {"RPMI-8226 leukemia": {"test_system": "RPMI-8226 leukemia"}, "HCT-15 colon": {"test_system": "HCT-15 colon"}, "HT29 colon": {"test_system": "HT29 colon"}, "SF-268 CNS": {"test_system": "SF-268 CNS"}, "HCT-116 colon": {"test_system": "HCT-116 colon"}, "NCI-H522 lung": {"test_system": "NCI-H522 lung"}, "UO-31 renal": {"test_system": "UO-31 renal"}, "MCF7 breast": {"test_system": "MCF7 breast"}, "NCI-H23 lung": {"test_system": "NCI-H23 lung"}, "M14 melanoma": {"test_system": "M14 melanoma"}, "SF-295 CNS": {"test_system": "SF-295 CNS"}, "MDA-MB-435": {"test_system": "MDA-MB-435"}, "HCC-2998 colon": {"test_system": "HCC-2998 colon"}, "SNB-19 CNS": {"test_system": "SNB-19 CNS"}, "SK-MEL-5 melanoma": {"test_system": "SK-MEL-5 melanoma"}, "786-0 renal": {"test_system": "786-0 renal"}, "K-562 leukemia": {"test_system": "K-562 leukemia"}, "SR leukemia": {"test_system": "SR leukemia"}, "IGROV1 ovarian": {"test_system": "IGROV1 ovarian"}, "DU-145 prostate": {"test_system": "DU-145 prostate"}, "U251 CNS": {"test_system": "U251 CNS"}, "HL-60(TB) leukemia": {"test_system": "HL-60(TB) leukemia"}, "TK-10 renal": {"test_system": "TK-10 renal"}, "SK-MEL-28 melanoma": {"test_system": "SK-MEL-28 melanoma"}, "MALME-3M melanoma": {"test_system": "MALME-3M melanoma"}, "MDA-MB-231 breast": {"test_system": "MDA-MB-231 breast"}}, "note": "Some of these compounds have results that are not shown, active ones among them.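 48-hour exposure; five concentrations; linearly interpolated endpoints. Abbreviation: GI50, concentration required for 50% inhibition of growth. TGI is the concentration that stops growth completely.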"}
{"smiles": "CC(C)/C=C\\C(O)(C(=O)OC1CN2CCC1CC2)c1ccccc1", "note": "(configuration not stated)", "values": [{"measurement": "GI50", "setting": "RPMI-8226 leukemia", "result": "> 100", "unit": "µM"}, {"measurement": "TGI", "setting": "RPMI-8226 leukemia", "result": "> 100", "unit": "µM"}, {"measurement": "GI50", "setting": "HCT-15 colon", "result": "> 100", "unit": "µM"}, {"measurement": "TGI", "setting": "HCT-15 colon", "result": "> 100", "unit": "µM"}, {"measurement": "GI50", "setting": "HT29 colon", "result": "> 100", "unit": "µM"}, {"measurement": "TGI", "setting": "HT29 colon", "result": "> 100", "unit": "µM"}, {"measurement": "GI50", "setting": "SF-268 CNS", "result": "> 100", "unit": "µM"}, {"measurement": "TGI", "setting": "SF-268 CNS", "result": "> 100", "unit": "µM"}, {"measurement": "GI50", "setting": "HCT-116 colon", "result": "> 100", "unit": "µM"}, {"measurement": "TGI", "setting": "HCT-116 colon", "result": "> 100", "unit": "µM"}, {"measurement": "GI50", "setting": "NCI-H522 lung", "result": "> 100", "unit": "µM"}, {"measurement": "TGI", "setting": "NCI-H522 lung", "result": "> 100", "unit": "µM"}, {"measurement": "GI50", "setting": "UO-31 renal", "result": 57.6, "unit": "µM"}, {"measurement": "TGI", "setting": "UO-31 renal", "result": "> 100", "unit": "µM"}, {"measurement": "GI50", "setting": "MCF7 breast", "result": "> 100", "unit": "µM"}, {"measurement": "TGI", "setting": "MCF7 breast", "result": "> 100", "unit": "µM"}, {"measurement": "GI50", "setting": "NCI-H23 lung", "result": "> 100", "unit": "µM"}, {"measurement": "TGI", "setting": "NCI-H23 lung", "result": "> 100", "unit": "µM"}, {"measurement": "GI50", "setting": "M14 melanoma", "result": "> 100", "unit": "µM"}, {"measurement": "TGI", "setting": "M14 melanoma", "result": "> 100", "unit": "µM"}, {"measurement": "GI50", "setting": "SF-295 CNS", "result": "> 100", "unit": "µM"}, {"measurement": "TGI", "setting": "SF-295 CNS", "result": "> 100", "unit": "µM"}, {"measurement": "GI50", "setting": "MDA-MB-435", "result": "> 100", "unit": "µM"}, {"measurement": "TGI", "setting": "MDA-MB-435", "result": "> 100", "unit": "µM"}, {"measurement": "GI50", "setting": "HCC-2998 colon", "result": "> 100", "unit": "µM"}, {"measurement": "TGI", "setting": "HCC-2998 colon", "result": "> 100", "unit": "µM"}, {"measurement": "GI50", "setting": "SNB-19 CNS", "result": "> 100", "unit": "µM"}, {"measurement": "TGI", "setting": "SNB-19 CNS", "result": "> 100", "unit": "µM"}, {"measurement": "GI50", "setting": "SK-MEL-5 melanoma", "result": "> 100", "unit": "µM"}, {"measurement": "TGI", "setting": "SK-MEL-5 melanoma", "result": "> 100", "unit": "µM"}, {"measurement": "GI50", "setting": "786-0 renal", "result": "> 100", "unit": "µM"}, {"measurement": "TGI", "setting": "786-0 renal", "result": "> 100", "unit": "µM"}, {"measurement": "GI50", "setting": "K-562 leukemia", "result": "> 100", "unit": "µM"}, {"measurement": "TGI", "setting": "K-562 leukemia", "result": "> 100", "unit": "µM"}, {"measurement": "GI50", "setting": "SR leukemia", "result": "> 100", "unit": "µM"}, {"measurement": "TGI", "setting": "SR leukemia", "result": "> 100", "unit": "µM"}, {"measurement": "GI50", "setting": "IGROV1 ovarian", "result": "> 100", "unit": "µM"}, {"measurement": "TGI", "setting": "IGROV1 ovarian", "result": "> 100", "unit": "µM"}, {"measurement": "GI50", "setting": "DU-145 prostate", "result": "> 100", "unit": "µM"}, {"measurement": "TGI", "setting": "DU-145 prostate", "result": "> 100", "unit": "µM"}, {"measurement": "GI50", "setting": "U251 CNS", "result": "> 100", "unit": "µM"}, {"measurement": "TGI", "setting": "U251 CNS", "result": "> 100", "unit": "µM"}, {"measurement": "GI50", "setting": "HL-60(TB) leukemia", "result": "> 100", "unit": "µM"}, {"measurement": "TGI", "setting": "HL-60(TB) leukemia", "result": "> 100", "unit": "µM"}, {"measurement": "GI50", "setting": "TK-10 renal", "result": "> 100", "unit": "µM"}, {"measurement": "TGI", "setting": "TK-10 renal", "result": "> 100", "unit": "µM"}, {"measurement": "GI50", "setting": "SK-MEL-28 melanoma", "result": "> 100", "unit": "µM"}, {"measurement": "TGI", "setting": "SK-MEL-28 melanoma", "result": "> 100", "unit": "µM"}, {"measurement": "GI50", "setting": "MALME-3M melanoma", "result": "> 100", "unit": "µM"}, {"measurement": "TGI", "setting": "MALME-3M melanoma", "result": "> 100", "unit": "µM"}, {"measurement": "GI50", "setting": "MDA-MB-231 breast", "result": "> 100", "unit": "µM"}, {"measurement": "TGI", "setting": "MDA-MB-231 breast", "result": "> 100", "unit": "µM"}]}
